Source: paper PMC7057333, “Macrocyclic Peptides Uncover a Novel Binding Mode for Reversible Inhibitors of LSD1” (ACS Omega, 2020)
“Also recorded” adds a separate entry of the source.

Tests used:
LSD1 [1] = biological target: T1, LSD1 (Homo sapiens, UniProt O60341); experiment: SPR biosensor interaction analysis under modified conditions (25 °C, TBS-T without DTT); assay type: binding; conditions: SPR at 25 °C, buffer without disulfide exchange reagents; 2-fold dilution series from 50 μM
T1 construct: LSD1 amino acid residues 172–833; made in house; host or cells: Escherichia coli Rosetta 2 (pET15b)

LSD1 [2] = biological target: T1, LSD1; experiment: SPR biosensor interaction kinetic assay with immobilized LSD1 (15 °C, TBS-T with DTT); assay type: binding; conditions: for fold increase of KD on further C-terminal truncation: relative to the next longer truncated peptide (3 vs 2, 4 vs 3); for KD: immobilized LSD1, 15 °C, ni = no interaction observed, ns = high nonspecific binding, weak interactions only approximated, highest concentration 200 μM; for interaction with immobilized LSD1 (in words): standard conditions

## CSCC[C@@H]1NC(=O)[C@H](NC(=O)[C@H](CCCNC(=N)N)NC(=O)[C@H](C)N)CCCCNC(=O)CC[C@@H](C(=O)N[C@@H](C)C(=O)N[C@@H](CCCNC(=N)N)C(=O)N[C@@H](CCCCN)C(=O)N[C@@H](CO)C(=O)N[C@H](C(N)=O)[C@@H](C)O)NC(=O)[C@H](CCC(N)=O)NC1=O (relative stereo) [Peptide 31]
LSD1 [1]
  interaction with immobilized LSD1 (in words): profile similar to that of lactam 28; also recorded: strong interaction

## CSCC[C@H](NC(=O)[C@@H](NC(=O)[C@H](CCCNC(=N)N)NC(=O)[C@H](C)N)[C@@H](C)O)C(=O)N[C@@H](CCC(N)=O)C(=O)N[C@H](C(=O)N[C@@H](C)C(=O)N[C@@H](CCCNC(=N)N)C(=O)N[C@@H](CCCCN)C(=O)N[C@@H](CO)C(=O)N[C@H](C(=O)NCC(=O)NCC(=O)O)[C@@H](C)O)[C@@H](C)O [Peptide 3]
LSD1 [2]
  fold increase of KD on further C-terminal truncation: 7 fold

## CSCC[C@H](NC(=O)[C@@H](NC(=O)[C@H](CCCNC(=N)N)NC(=O)[C@H](C)N)[C@@H](C)O)C(=O)N[C@@H](CCC(N)=O)C(=O)N[C@H](C(=O)N[C@@H](C)C(=O)N[C@@H](CCCNC(=N)N)C(=O)N[C@@H](CCCCN)C(=O)N[C@@H](CO)C(=O)N[C@H](C(=O)O)[C@@H](C)O)[C@@H](C)O [Peptide 4]
LSD1 [2]
  fold increase of KD on further C-terminal truncation: 4 fold

## CSCC[C@H](NC(=O)[C@@H](NC(C)=O)[C@@H](C)O)C(=O)N[C@@H](CCC(N)=O)C(=O)N[C@H](C(=O)N[C@@H](C)C(=O)N[C@@H](CCCNC(=N)N)C(=O)N[C@@H](CCCCN)C(=O)N[C@@H](CO)C(=O)N[C@H](C(=O)NCC(=O)NCC(=O)N[C@@H](CCCCN)C(=O)N[C@@H](C)C(=O)N1CCC[C@H]1C(=O)N[C@@H](CCCNC(=N)N)C(=O)N[C@@H](CCCCN)C(=O)N[C@@H](CCC(N)=O)C(=O)N[C@@H](CC(C)C)C(=O)N[C@@H](C)C(=O)O)[C@@H](C)O)[C@@H](C)O [Peptide 8]
LSD1 [2]
  KD: ni ^a
  interaction with immobilized LSD1 (in words): abolished the interaction completely

## C[C@H](N)C(=O)N[C@@H](CCCNC(=N)N)C(=O)N[C@H](C(=O)N[C@@H](CCCCN)C(=O)N[C@@H](CCC(N)=O)C(=O)N[C@H](C(=O)N[C@@H](C)C(=O)N[C@@H](CCCNC(=N)N)C(=O)N[C@@H](CCCCN)C(=O)N[C@@H](CO)C(=O)N[C@H](C(N)=O)[C@@H](C)O)[C@@H](C)O)[C@@H](C)O [Peptide 9]
LSD1 [2]
  interaction with immobilized LSD1 (in words): No signs of saturation of the interaction

## CSCC[C@H](NC(=O)[C@H](CCCNC(=N)N)NC(=O)[C@H](CO)NC(=O)[C@H](CCCNC(=N)N)NC(=O)[C@H](C)NC(=O)[C@H](CCCCN)NC(=O)[C@H](CCC(N)=O)NC(=O)[C@@H](N)CCC(=O)O)C(=O)N[C@@H](C)C(=O)N[C@@H](CCCCN)C(=O)N[C@H](C(N)=O)[C@@H](C)O [Peptide 10]
LSD1 [2]
  KD: ni
  interaction with immobilized LSD1 (in words): No interaction was observed

## CSCC[C@H](NC(=O)[C@@H](NC(=O)[C@H](CCCNC(=N)N)NC(=O)[C@@H](N)C(C)(C)C)[C@@H](C)O)C(=O)N[C@@H](CCC(N)=O)C(=O)N[C@H](C(=O)N[C@@H](C)C(=O)N[C@@H](CCCNC(=N)N)C(=O)N[C@@H](CCCCN)C(=O)N[C@@H](CO)C(=O)N[C@H](C(N)=O)[C@@H](C)O)[C@@H](C)O [Peptide 12]
LSD1 [2]
  KD: ni ^c
  interaction with immobilized LSD1 (in words): absence of a detectable interaction

## CSCC[C@H](NC(=O)[C@@H](NC(=O)[C@H](CCCNC(N)=O)NC(=O)[C@H](C)N)[C@@H](C)O)C(=O)N[C@@H](CCC(N)=O)C(=O)N[C@H](C(=O)N[C@@H](C)C(=O)N[C@@H](CCCNC(=N)N)C(=O)N[C@@H](CCCCN)C(=O)N[C@@H](CO)C(=O)N[C@H](C(N)=O)[C@@H](C)O)[C@@H](C)O [Peptide 13]
LSD1 [2]
  KD: ni
  interaction with immobilized LSD1 (in words): complete loss of interaction; also recorded: absence of interaction

## CSCC[C@H](NC(=O)[C@@H](NC(=O)[C@H](CCCNC(=N)N)NC(=O)[C@H](C)N)[C@@H](C)O)C(=O)N[C@@H](CCC(N)=O)C(=O)N[C@H](C(=O)N[C@@H](C)C(=O)N[C@@H](CCCNC(N)=O)C(=O)N[C@@H](CCCCN)C(=O)N[C@@H](CO)C(=O)N[C@H](C(N)=O)[C@@H](C)O)[C@@H](C)O [Peptide 14, ARTMQTA(Cit)KST-NH2]
LSD1 [2]
  KD: ni
  interaction with immobilized LSD1 (in words): complete loss of interaction; also recorded: absence of interaction

## CSCC[C@@H]1NC(=O)[C@@H](NC(=O)[C@H](CCCNC(=N)N)NC(=O)[C@H](C)N)CCCCNC(=O)CC[C@@H](C(=O)N[C@@H](C)C(=O)N[C@@H](CCCNC(=N)N)C(=O)N[C@@H](CCCCN)C(=O)N[C@@H](CO)C(=O)N[C@H](C(N)=O)[C@@H](C)O)NC(=O)[C@H](CCC(N)=O)NC1=O [Peptide 27]
LSD1 [1]
  interaction with immobilized LSD1 (in words): low or undetectable

## CSCC[C@@H]1NC(=O)[C@@H](NC(=O)[C@H](CCCNC(=N)N)NC(=O)[C@H](C)N)CCC(=O)NCCCC[C@@H](C(=O)N[C@@H](C)C(=O)N[C@@H](CCCNC(=N)N)C(=O)N[C@@H](CCCCN)C(=O)N[C@@H](CO)C(=O)N[C@H](C(N)=O)[C@@H](C)O)NC(=O)[C@H](CCC(N)=O)NC1=O [Peptide 28]
LSD1 [1]
  interaction with immobilized LSD1 (in words): interacted specifically with LSD1

## CSCC[C@@H]1NC(=O)[C@@H](NC(=O)[C@H](CCCNC(N)=O)NC(=O)[C@H](C)N)CCC(=O)NCCCC[C@@H](C(=O)N[C@@H](C)C(=O)N[C@@H](CCCNC(=N)N)C(=O)N[C@@H](CCCCN)C(=O)N[C@@H](CO)C(=O)N[C@H](C(N)=O)[C@@H](C)O)NC(=O)[C@H](CCC(N)=O)NC1=O [Peptide 33]
LSD1 [1]
  interaction with immobilized LSD1 (in words): well-defined dose–response interaction curves

## CSCC[C@@H]1NC(=O)[C@@H](NC(=O)[C@H](CCCNC(=N)N)NC(=O)[C@H](C)N)CCC(=O)NCCCC[C@@H](C(=O)N[C@@H](C)C(=O)N[C@@H](CCCNC(N)=O)C(=O)N[C@@H](CCCCN)C(=O)N[C@@H](CO)C(=O)N[C@H](C(N)=O)[C@@H](C)O)NC(=O)[C@H](CCC(N)=O)NC1=O [Peptide 34]
LSD1 [1]
  interaction with immobilized LSD1 (in words): well-defined dose–response interaction curves
